{
  "source": "patent USRE46170E1",
  "about": "“Insulin derivatives” (Novo Nordisk A/S, priority 2005, dated 2016)",
  "data": [
    {"test": "Hydrophobicity (hydrophobic index) relative to human insulin by isocratic RP-HPLC", "format": "physicochemical", "conditions": "LiChrosorb RP18 column, isocratic elution at 40° C., sodium phosphate buffer pH 7.3/acetonitrile", "procedure": "The elution was monitored by following the UV absorption of the eluate at 214 nm. Void time, t0, was found by injecting 0.1 mM sodium nitrate.", "values": [
      {"substance": "N^εB29-3-[4′-(2-Carboxyethyl)biphenyl-4-yl]propionyl-γ-L-glutamyl desB30 insulin [Example 17]", "k′rel": 0.276},
      {"substance": "N^εB29—[N—(HOOC(CH2)14CO—N-(carboxethyl)-CH2-meta C6H4CO] desB30 human insulin [Example 6]", "k′rel": 1.63},
      {"substance": "N^εB29—[N—HOOC(CH2)14CO)—N-(carboxyethyl)-CH2-para-C6H4CO] desB30 human insulin [Example 1]", "k′rel": 1.19}
    ]}
  ]
}
